# Literature values as cited in patent US9896711B2, “Fluorogenic or fluorophoric compounds and uses thereof” (3M INNOVATIVE PROPERTIES COMPANY, priority 2011, dated 2018).
# Settings: see Bioorg. and Med. Chem. Lett., 8, 3107-3110 (1998); cited from earlier work
substance,measurement,value
"6,8-difluoro-3-ethylcarboxylate-7-hydroxycoumarin",pKa,3.8
